The assay has as its system weed combination. The assay can be described thus: Herbicidal activity of citric acid alone, pre-emergence, covered pots. It counts as in vivo. Conditions: 28 d after treatment; citric acid 200 mg/kg soil. As to the method:
The weeds used in these tests were the same as those used in Example 4, and observations were made of the effects on individual weeds as well as the weed population as a whole.
A stock solution of citric acid was made in the manner described in Example 4, and all other test parameters were likewise the same as in Example 4. Weed counts were taken from the various pots at intervals of 7, 12, and 28 days after application of the citric acid, and data analyses were performed in the same manner as Example 1.

Molecules are shown by their SMILES.

For the compound `O=C(O)CC(O)(CC(=O)O)C(=O)O` [C6H8O7, 2-hydroxy-1,2,3-propanetricarboxylic acid], the “Weeds Per Pot (weed combination)” value was 22.5.

Source of the values: patent US20070116781A1, “Hydrogen Cyanamide Pesticide Formulations” (priority 2005, published 2007).
